Experimental data published in US20150359843A1.

Assays:
p53 G245S-Δ22 (human) = p53 G245S-Δ22 (human) (UniProt P04637); experiment: p53-antibody complexes captured on protein-G plates, detected via CM-1
p53 R273H-Δ22 (human) = p53 R273H-Δ22 (human) (UniProt P04637); experiment: as above

Pab1620 epitope presence, % of wild-type (% of wild-type) (p53 G245S-Δ22 (human)): 55
Pab1620 epitope presence, % of wild-type (% of wild-type) (p53 R273H-Δ22 (human)): 100
Substance: Pab1620 antibody
